The target of the experiment is T1, recombinant human CYP1B1 (Homo sapiens, UniProt Q16678).
T1 sequence (Q16678 1-543): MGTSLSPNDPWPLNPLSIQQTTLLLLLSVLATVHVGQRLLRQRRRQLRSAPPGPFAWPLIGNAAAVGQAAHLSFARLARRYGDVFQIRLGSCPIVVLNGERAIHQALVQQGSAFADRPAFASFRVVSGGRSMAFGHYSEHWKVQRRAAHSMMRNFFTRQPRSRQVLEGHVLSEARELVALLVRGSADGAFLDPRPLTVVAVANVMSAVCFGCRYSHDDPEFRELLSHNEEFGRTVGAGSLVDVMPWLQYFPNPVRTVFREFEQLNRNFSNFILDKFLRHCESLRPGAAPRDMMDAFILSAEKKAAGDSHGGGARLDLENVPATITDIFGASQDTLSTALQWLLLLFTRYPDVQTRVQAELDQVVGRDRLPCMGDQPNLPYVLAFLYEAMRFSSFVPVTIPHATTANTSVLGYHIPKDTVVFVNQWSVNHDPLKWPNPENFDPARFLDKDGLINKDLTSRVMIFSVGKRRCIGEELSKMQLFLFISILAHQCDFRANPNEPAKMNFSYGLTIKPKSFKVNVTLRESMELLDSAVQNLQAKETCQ
Briefly: EROD assay, recombinant human CYP1B1 inhibition. The format is biochemical.

pIC50: −log10 of the molar value.

With `O=c1cc(-c2ccccc2)oc2c1ccc1ccccc12` [ANF, α-Naphthoflavone], the pIC50 was 8.25.

The values are drawn from article PMC9080015 (RSC Advances, 2018).
